Target: ASGPR (Homo sapiens (Human), UniProt P07306)
Experiment: Affinity to ASGPR measured by surface plasmon resonance (SPR)
Conditions: read-out: SPR Binding External Calculation: KD

Amino acid sequences for entries named in this document (tags omitted). A change or cut given only in a name is not applied to a line headed by its entry.
UniProt P07306: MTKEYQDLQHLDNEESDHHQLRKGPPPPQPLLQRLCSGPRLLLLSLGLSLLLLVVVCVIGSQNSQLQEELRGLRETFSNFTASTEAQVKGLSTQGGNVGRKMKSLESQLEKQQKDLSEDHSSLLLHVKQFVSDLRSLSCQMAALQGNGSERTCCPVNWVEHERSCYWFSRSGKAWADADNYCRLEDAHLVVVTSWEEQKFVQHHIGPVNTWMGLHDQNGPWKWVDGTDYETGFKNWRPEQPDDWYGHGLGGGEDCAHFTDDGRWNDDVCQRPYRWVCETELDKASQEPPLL

## CO[C@H]1O[C@H](CO)[C@H](O)[C@H](O)[C@H]1Nc1nc(N(C)C)ns1 [Compound A114, (2R,3R,4R,5R,6S)-5-((3-(dimethylamino)-1,2,4-thiadiazol-5-yl)amino)-2-(hydroxymethyl)-6-methoxytetrahydro-2H-pyran-3,4-diol]
  Kd: < 100 µM

From patent US20240072809A1, “ASGPR-BINDING COMPOUNDS FOR THE DEGRADATION OF EXTRACELLULAR PROTEINS” (Avilar Therapeutics, Inc., priority 2020, published 2024)
